Source: ChEMBL document CHEMBL2203256, “Design and evaluation of azaindole-substituted N-hydroxypyridones as glyoxalase I inhibitors” (Bioorg Med Chem Lett, 2012)

The chains behind the UniProt entries cited, without tags or fusion partners. Where a name states a change or a piece, a line headed by the entry shows the natural chain unless it says otherwise.
UniProt Q04760: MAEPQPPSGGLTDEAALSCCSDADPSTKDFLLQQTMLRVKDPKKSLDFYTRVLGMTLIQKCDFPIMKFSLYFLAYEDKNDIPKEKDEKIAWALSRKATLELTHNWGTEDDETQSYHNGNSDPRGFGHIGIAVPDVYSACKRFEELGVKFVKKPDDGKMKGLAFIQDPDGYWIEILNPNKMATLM

Target: Lactoylglutathione lyase (Homo sapiens, UniProt Q04760)
Test: Inhibition of human recombinant GLO1 expressed in Escherichia coli BL21 assessed as decrease in reduced glutathione level after 1 hr by Ellman's method

COCCCn1ccc2cc(-c3cc(-c4ccccc4)cc(=O)n3O)cnc21
IC50: 0.011 µM
